According to ChEMBL document CHEMBL3885861, “Open TG-GATES”:

Species: Rattus norvegicus
Test: Open TG-GATES - Regimen: Single
Format: toxicity, organism-based, Sprague-Dawley
Design: regimen Single, gender Male, age 6 weeks
Conditions: in vivo, po, route gavage; for APTT / Fbg / MCH / MCV / Mono / Neu / PT / Plat / RBC / Hb: tissue Blood; for AST / BUN / Ca / Cl / LDH / PL / TC: tissue Plasma; for LIVER: tissue Liver
[1] = 0 mg/kg, 3 h, dose level Control
[2] = 0 mg/kg, 6 h, dose level Control
[3] = 0 mg/kg, 9 h, dose level Control
[4] = 0 mg/kg, 24 h, dose level Control
[5] = 10 mg/kg, 3 h, dose level Middle
[6] = 10 mg/kg, 6 h, dose level Middle
[7] = 10 mg/kg, 9 h, dose level Middle
[8] = 10 mg/kg, 24 h, dose level Middle
[9] = 30 mg/kg, 24 h, dose level High

CNCCC(Oc1ccc(C(F)(F)F)cc1)c1ccccc1.Cl (centres undefined) [FLUOXETINE HYDROCHLORIDE]
APTT [1]: 15.3 s
Fbg [1]: 253.8 mg/dL
MCH [1]: 21.1 pg
MCV [1]: 65.7 fL
Mono [1]: 9.2%
Neu [1]: 17.4%
PT [1]: 12.3 s
Plat [1]: 121.8 x10_4/uL
RBC [1]: 626.6 x10_4/ul
AST [1]: 69.8 IU/L
BUN [1]: 11.6 mg/dL
Ca [1]: 11.4 mg/dL
Cl [1]: 104.9 meq/L
LDH [1]: 149.8 IU/L
PL [1]: 147.4 mg/dL
APTT [2]: 16 s
Fbg [2]: 232.8 mg/dL
MCH [2]: 21.5 pg
Mono [2]: 10%
Neu [2]: 17.2%
PT [2]: 12.3 s
Plat [2]: 116 x10_4/uL
RBC [2]: 614.2 x10_4/ul
AST [2]: 68 IU/L
Ca [2]: 10.9 mg/dL
Cl [2]: 107.2 meq/L
TC [2]: 76.6 mg/dL
APTT [3]: 16 s
Hb [3]: 13.1 g/dL
MCH [3]: 21.7 pg
MCV [3]: 66.8 fL
Mono [3]: 9.2%
Neu [3]: 23.6%
PT [3]: 12.6 s
Plat [3]: 127.2 x10_4/uL
RBC [3]: 602.6 x10_4/ul
AST [3]: 63 IU/L
BUN [3]: 11.6 mg/dL
Ca [3]: 10.4 mg/dL
Cl [3]: 106.1 meq/L
TC [3]: 79.4 mg/dL
APTT [4]: 15.5 s
Fbg [4]: 238 mg/dL
Hb [4]: 13 g/dL
MCH [4]: 21.7 pg
Mono [4]: 7.8%
Neu [4]: 14.4%
PT [4]: 11.7 s
Plat [4]: 122.2 x10_4/uL
LIVER [4]: 12.1 g
AST [4]: 61.6 IU/L
BUN [4]: 17.4 mg/dL
Ca [4]: 11 mg/dL
Cl [4]: 104.3 meq/L
LDH [4]: 108.6 IU/L
PL [4]: 165.2 mg/dL
TC [4]: 87.8 mg/dL
APTT (3 mg/kg, 3 h, dose level Low): 15 s
Fbg (3 mg/kg, 3 h, dose level Low): 247 mg/dL
Hb (3 mg/kg, 3 h, dose level Low): 13.4 g/dL
MCH (3 mg/kg, 3 h, dose level Low): 21.4 pg
MCV (3 mg/kg, 3 h, dose level Low): 66.4 fL
Mono (3 mg/kg, 3 h, dose level Low): 7.2%
Neu (3 mg/kg, 3 h, dose level Low): 15.2%
PT (3 mg/kg, 3 h, dose level Low): 12.1 s
Plat (3 mg/kg, 3 h, dose level Low): 116.4 x10_4/uL
RBC (3 mg/kg, 3 h, dose level Low): 630 x10_4/ul
Ca (3 mg/kg, 3 h, dose level Low): 11.4 mg/dL
Cl (3 mg/kg, 3 h, dose level Low): 104.9 meq/L
LDH (3 mg/kg, 3 h, dose level Low): 155.4 IU/L
PL (3 mg/kg, 3 h, dose level Low): 154.6 mg/dL
TC (3 mg/kg, 3 h, dose level Low): 88.2 mg/dL
APTT (3 mg/kg, 6 h, dose level Low): 15.9 s
Fbg (3 mg/kg, 6 h, dose level Low): 239.6 mg/dL
Hb (3 mg/kg, 6 h, dose level Low): 13.4 g/dL
MCV (3 mg/kg, 6 h, dose level Low): 67.7 fL
Mono (3 mg/kg, 6 h, dose level Low): 12.6%
Neu (3 mg/kg, 6 h, dose level Low): 19.2%
Plat (3 mg/kg, 6 h, dose level Low): 116 x10_4/uL
RBC (3 mg/kg, 6 h, dose level Low): 608.6 x10_4/ul
AST (3 mg/kg, 6 h, dose level Low): 66.8 IU/L
Cl (3 mg/kg, 6 h, dose level Low): 106.2 meq/L
LDH (3 mg/kg, 6 h, dose level Low): 92.4 IU/L
PL (3 mg/kg, 6 h, dose level Low): 149.2 mg/dL
TC (3 mg/kg, 6 h, dose level Low): 80 mg/dL
APTT (3 mg/kg, 9 h, dose level Low): 16.1 s
Fbg (3 mg/kg, 9 h, dose level Low): 236 mg/dL
Hb (3 mg/kg, 9 h, dose level Low): 13 g/dL
MCH (3 mg/kg, 9 h, dose level Low): 21.7 pg
MCV (3 mg/kg, 9 h, dose level Low): 67 fL
Mono (3 mg/kg, 9 h, dose level Low): 7.8%
Neu (3 mg/kg, 9 h, dose level Low): 22.4%
PT (3 mg/kg, 9 h, dose level Low): 12.9 s
Plat (3 mg/kg, 9 h, dose level Low): 126 x10_4/uL
AST (3 mg/kg, 9 h, dose level Low): 59.6 IU/L
Ca (3 mg/kg, 9 h, dose level Low): 10.6 mg/dL
Cl (3 mg/kg, 9 h, dose level Low): 105.1 meq/L
LDH (3 mg/kg, 9 h, dose level Low): 147.2 IU/L
TC (3 mg/kg, 9 h, dose level Low): 77.6 mg/dL
APTT (3 mg/kg, 24 h, dose level Low): 16.2 s
Fbg (3 mg/kg, 24 h, dose level Low): 234.8 mg/dL
Hb (3 mg/kg, 24 h, dose level Low): 13.1 g/dL
MCH (3 mg/kg, 24 h, dose level Low): 21.7 pg
MCV (3 mg/kg, 24 h, dose level Low): 66.8 fL
Mono (3 mg/kg, 24 h, dose level Low): 8.8%
Neu (3 mg/kg, 24 h, dose level Low): 17.8%
Plat (3 mg/kg, 24 h, dose level Low): 117 x10_4/uL
RBC (3 mg/kg, 24 h, dose level Low): 602.6 x10_4/ul
AST (3 mg/kg, 24 h, dose level Low): 64.6 IU/L
Ca (3 mg/kg, 24 h, dose level Low): 11 mg/dL
Cl (3 mg/kg, 24 h, dose level Low): 104.9 meq/L
LDH (3 mg/kg, 24 h, dose level Low): 149.8 IU/L
PL (3 mg/kg, 24 h, dose level Low): 156 mg/dL
TC (3 mg/kg, 24 h, dose level Low): 79.8 mg/dL
APTT [5]: 15.1 s
Fbg [5]: 240.2 mg/dL
Hb [5]: 13.4 g/dL
MCH [5]: 21.7 pg
MCV [5]: 67.6 fL
Mono [5]: 9.8%
Neu [5]: 20.8%
PT [5]: 12.3 s
Plat [5]: 117.2 x10_4/uL
RBC [5]: 615.2 x10_4/ul
LIVER [5]: 11.6 g
AST [5]: 70.6 IU/L
Ca [5]: 12.1 mg/dL
Cl [5]: 103.5 meq/L
LDH [5]: 179.2 IU/L
PL [5]: 165.8 mg/dL
TC [5]: 86.6 mg/dL
APTT [6]: 15.5 s
Fbg [6]: 242.2 mg/dL
Hb [6]: 13.3 g/dL
MCV [6]: 67.2 fL
Mono [6]: 8.2%
Neu [6]: 20.6%
PT [6]: 12.4 s
Plat [6]: 123.6 x10_4/uL
RBC [6]: 606.8 x10_4/ul
AST [6]: 62.4 IU/L
Ca [6]: 11.3 mg/dL
Cl [6]: 107.3 meq/L
LDH [6]: 98.2 IU/L
PL [6]: 151 mg/dL
TC [6]: 88.8 mg/dL
APTT [7]: 16.2 s
Fbg [7]: 230.8 mg/dL
Hb [7]: 13.1 g/dL
MCH [7]: 21.2 pg
MCV [7]: 65.2 fL
Mono [7]: 6.8%
Neu [7]: 17%
PT [7]: 12.9 s
Plat [7]: 117.2 x10_4/uL
RBC [7]: 617.2 x10_4/ul
AST [7]: 60.2 IU/L
Ca [7]: 10.5 mg/dL
Cl [7]: 105.6 meq/L
LDH [7]: 110.8 IU/L
TC [7]: 78 mg/dL
Fbg [8]: 227.4 mg/dL
Hb [8]: 13.4 g/dL
MCH [8]: 21.7 pg
MCV [8]: 66.7 fL
Mono [8]: 8.6%
Neu [8]: 14.2%
Plat [8]: 114.4 x10_4/uL
RBC [8]: 618.2 x10_4/ul
AST [8]: 61.2 IU/L
Ca [8]: 10.8 mg/dL
LDH [8]: 125.2 IU/L
PL [8]: 164 mg/dL
TC [8]: 86.2 mg/dL
APTT (30 mg/kg, 3 h, dose level High): 15.2 s
Fbg (30 mg/kg, 3 h, dose level High): 239.2 mg/dL
Hb (30 mg/kg, 3 h, dose level High): 13 g/dL
MCH (30 mg/kg, 3 h, dose level High): 21.6 pg
MCV (30 mg/kg, 3 h, dose level High): 66.1 fL
Neu (30 mg/kg, 3 h, dose level High): 18.4%
Plat (30 mg/kg, 3 h, dose level High): 110.8 x10_4/uL
RBC (30 mg/kg, 3 h, dose level High): 604 x10_4/ul
AST (30 mg/kg, 3 h, dose level High): 68.4 IU/L
Ca (30 mg/kg, 3 h, dose level High): 11.7 mg/dL
Cl (30 mg/kg, 3 h, dose level High): 105.2 meq/L
LDH (30 mg/kg, 3 h, dose level High): 127.2 IU/L
PL (30 mg/kg, 3 h, dose level High): 166.4 mg/dL
TC (30 mg/kg, 3 h, dose level High): 95.6 mg/dL
APTT (30 mg/kg, 6 h, dose level High): 16.2 s
Fbg (30 mg/kg, 6 h, dose level High): 234.4 mg/dL
Hb (30 mg/kg, 6 h, dose level High): 13.6 g/dL
MCH (30 mg/kg, 6 h, dose level High): 21.7 pg
MCV (30 mg/kg, 6 h, dose level High): 67.4 fL
Mono (30 mg/kg, 6 h, dose level High): 7%
PT (30 mg/kg, 6 h, dose level High): 12.6 s
Plat (30 mg/kg, 6 h, dose level High): 121.2 x10_4/uL
RBC (30 mg/kg, 6 h, dose level High): 624.2 x10_4/ul
AST (30 mg/kg, 6 h, dose level High): 62.8 IU/L
Ca (30 mg/kg, 6 h, dose level High): 10.9 mg/dL
Cl (30 mg/kg, 6 h, dose level High): 108.1 meq/L
LDH (30 mg/kg, 6 h, dose level High): 90.2 IU/L
TC (30 mg/kg, 6 h, dose level High): 78 mg/dL
APTT (30 mg/kg, 9 h, dose level High): 15.7 s
Fbg (30 mg/kg, 9 h, dose level High): 247 mg/dL
MCH (30 mg/kg, 9 h, dose level High): 21.1 pg
MCV (30 mg/kg, 9 h, dose level High): 65.1 fL
Mono (30 mg/kg, 9 h, dose level High): 6.8%
Neu (30 mg/kg, 9 h, dose level High): 14.8%
PT (30 mg/kg, 9 h, dose level High): 12.9 s
Plat (30 mg/kg, 9 h, dose level High): 119 x10_4/uL
RBC (30 mg/kg, 9 h, dose level High): 627.2 x10_4/ul
AST (30 mg/kg, 9 h, dose level High): 64.4 IU/L
Ca (30 mg/kg, 9 h, dose level High): 10.8 mg/dL
Cl (30 mg/kg, 9 h, dose level High): 104.3 meq/L
LDH (30 mg/kg, 9 h, dose level High): 105.2 IU/L
TC (30 mg/kg, 9 h, dose level High): 84.2 mg/dL
APTT [9]: 16 s
Fbg [9]: 232.6 mg/dL
Hb [9]: 13.1 g/dL
MCH [9]: 21.5 pg
MCV [9]: 66.1 fL
Mono [9]: 7.4%
PT [9]: 12.4 s
AST [9]: 58.8 IU/L
BUN [9]: 17.8 mg/dL
Cl [9]: 104.9 meq/L
LDH [9]: 121.6 IU/L
PL [9]: 149.8 mg/dL
TC [9]: 82.6 mg/dL
